For the assay, the target named is CSF-1R (c-fms) (Homo sapiens (Human), UniProt P07333). Put plainly: Fluorescence polarization competition immunoassay (1 nM c-fms; peptide Pi assay). The following applies: inhibition of CSF-1R phosphorylation of SYEGNSYTFIDPTQ peptide; 1 mM ATP; read-out: 1 nM c-fms; peptide Pi assay - IC-50. In kind it is biochemical.

By UniProt entry, the sequences of proteins in these tests, tags left out. Residues count along the entry.
UniProt P07333, 20-972: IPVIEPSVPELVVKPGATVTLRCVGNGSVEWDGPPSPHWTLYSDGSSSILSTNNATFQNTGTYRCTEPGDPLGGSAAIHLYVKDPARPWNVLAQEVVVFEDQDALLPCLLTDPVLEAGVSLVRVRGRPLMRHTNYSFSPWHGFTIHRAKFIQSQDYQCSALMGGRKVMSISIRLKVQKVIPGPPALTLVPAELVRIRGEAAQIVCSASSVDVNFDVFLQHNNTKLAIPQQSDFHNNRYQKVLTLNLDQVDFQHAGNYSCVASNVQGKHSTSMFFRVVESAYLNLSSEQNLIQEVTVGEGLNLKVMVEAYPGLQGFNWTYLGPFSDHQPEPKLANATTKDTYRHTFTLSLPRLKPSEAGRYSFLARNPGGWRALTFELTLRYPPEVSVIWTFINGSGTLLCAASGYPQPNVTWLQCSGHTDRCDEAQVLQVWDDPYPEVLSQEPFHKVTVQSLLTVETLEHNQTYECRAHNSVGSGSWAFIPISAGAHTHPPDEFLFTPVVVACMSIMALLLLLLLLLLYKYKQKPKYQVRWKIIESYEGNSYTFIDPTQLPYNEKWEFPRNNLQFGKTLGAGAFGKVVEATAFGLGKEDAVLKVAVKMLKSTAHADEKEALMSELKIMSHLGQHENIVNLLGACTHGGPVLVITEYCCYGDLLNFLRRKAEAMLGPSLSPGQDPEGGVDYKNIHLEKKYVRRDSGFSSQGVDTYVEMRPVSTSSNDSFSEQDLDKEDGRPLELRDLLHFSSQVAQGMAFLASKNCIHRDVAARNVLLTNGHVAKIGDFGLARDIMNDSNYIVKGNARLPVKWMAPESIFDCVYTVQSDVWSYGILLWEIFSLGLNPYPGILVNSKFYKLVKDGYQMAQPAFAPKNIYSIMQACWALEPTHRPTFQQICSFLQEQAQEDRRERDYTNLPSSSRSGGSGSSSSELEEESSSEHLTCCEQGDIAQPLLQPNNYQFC

pIC50: −log10 of the molar value. Structures can show the parent of a compound that is named as a salt.

As to `CCOC(=O)Cc1ccc(NC(=O)c2cc(C#N)c[nH]2)c(C2=CCC(C)(C)CC2)n1` [Example 50, [5-[(4-Cyano-1H-pyrrole-2-carbonyl)-amino]-6-(4,4-dimethyl-cyclohex-1-enyl)-pyridin-2-yl]-acetic acid ethyl ester trifluoroacetic acid salt], the pIC50 is 7.22.
